In patent US7229782B1, “Antibodies specific to multiple beta blockers and methods for their use” (LabOne, Inc., priority 2004, dated 2007):

Tested on: antibody of the present invention
Assay: Interference from other drugs, homogeneous enzyme immunoassay
Format: binding, rabbit
Conditions: chemical at 10.0 μg/ml urine; cutoff 5.0 μg Atenolol per ml of urine; tested three times
Method: Samples were checked for turbidity and growth. A homogeneous enzyme immunoassay was carried out on an Olympus AU-5200 analyzer using the following assay parameters:
Reagent 1 is comprised of a titer of 1–500 dilution of an antibody of the present invention, 11.25 mM NAD+, 11.25 mM G6P, 0.1% w/v sodium azide and 100 mM Tris.
Reagent 2 is comprised of a titer of 1–2000 dilution of a G6PDH-beta blocker conjugate, 0.1% w/v sodium azide, and 50 mM Tris.
A homogenous calibrator containing sodium azide was used to calibrate the analyzer prior to each run.
The analytical cutoff for the test was set at 5.0 μg Atenolol per ml of urine. The result was scored as a positive if the signal strength was greater than that produced by 5.0 μg Atenolol per ml of urine.
Interference from other drugs was tested using fifty-five (55) frequently used chemicals and medicines, at concentrations of 10.0 μg/ml urine.
The samples were tested three times, following the procedures used in Example 3. All 55 samples produced a negative test result. Thus, the immunoassay of the present invention is specific to beta blockers.

CN1CC[C@]23c4c5ccc(O)c4O[C@H]2C(=O)CC[C@H]3[C@H]1C5 [Hydromorphone]
Beta-Blocker Pos./Neg.: Neg. (scored as a positive if the signal strength was greater than that produced by 5.0 μg Atenolol per ml of urine)
